Laboratory results taken from patent EP4545138A1, “HETEROCYCLIC COMPOUNDS AS BLT2 AGONISTS AND THEIR MEDICAL USE” (Fraunhofer-Gesellschaft zur Förderung der angewandten …, priority 2023, dated 2025).

By UniProt entry, the sequences of proteins in these tests, tags left out. Where a name states a change or a piece, a line headed by the entry shows the natural chain unless it says otherwise.
UniProt Q15722: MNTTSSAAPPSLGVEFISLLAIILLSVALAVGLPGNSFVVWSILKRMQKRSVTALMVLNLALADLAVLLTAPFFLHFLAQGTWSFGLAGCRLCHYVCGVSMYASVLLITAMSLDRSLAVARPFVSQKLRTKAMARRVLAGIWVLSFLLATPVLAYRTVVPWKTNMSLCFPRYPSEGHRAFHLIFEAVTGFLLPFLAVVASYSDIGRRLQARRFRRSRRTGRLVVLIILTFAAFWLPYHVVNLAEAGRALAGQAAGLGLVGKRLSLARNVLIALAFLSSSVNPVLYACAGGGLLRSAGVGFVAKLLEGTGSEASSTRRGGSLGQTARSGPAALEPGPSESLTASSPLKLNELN

Target: BLT1 (Homo sapiens, UniProt Q15722)
Test: IP-One (IP-1 accumulation, HTRF) off-target assay in CHO-K1 cells stably overexpressing BLT1 + GNA15/16
Conditions: CHO-K1 cells overexpressing BLT1 + GNA15/16, LTB4 as reference agonist

1-(2-(2-(1H-Tetrazol-5-yl)phenyl)-2,7-diazaspiro[3.5]nonan-7-yl)pentan-1-one [Compound 18]
off-target test on BLT1: Inactive
